Measurements reported in patent US20250025411A1, “READILY SOLUBLE AND THERMOSTABLE GLUCAGON FORMULATIONS AND DELIVERY FOR MINI-DOSING AND CLOSED -LOOP PROPHYLACTIC TREATMENT OF HYPOGLYCEMIA” (Massachusetts Institute of Technology, priority 2023, published 2025).

Assay: High throughput screening of water-soluble solid excipients for glucagon dissolution
Format: physicochemical
Settings: for Fold change vs. PBS Avg.: 30-minute incubation in pH 7.4 PBS containing 1 mg/mL excipient

Row | Fold change vs. PBS Avg. (37° C.) | Glucagon concentration Avg. (solubilized glucagon after 30-minute incubation of lyophilized glucagon in pH 7.4 PBS containing 1 mg/mL excipient, 37° C.) | SMILES | enhancement of glucagon dissolution (statistical significance compared to no excipient) (30-minute incubation in pH 7.4 PBS at 37° C.)
1 | 6.13 fold | – | CNC[C@H](O)[C@@H](O)[C@H](O)[C@H](O)CO [Meglumine] | successfully enhanced the dissolution of glucagon
2 | 1.30 fold | 0.28 mg/mL | OC[C@H]1O[C@@H]2O[C@H]3[C@H](O)[C@@H](O)[C@@H](O[C@H]4[C@H](O)[C@@H](O)[C@@H](O[C@H]5[C@H](O)[C@@H](O)[C@@H](O[C@H]6[C@H](O)[C@@H](O)[C@@H](O[C@H]7[C@H](O)[C@@H](O)[C@@H](O[C@H]8[C@H](O)[C@@H](O)[C@@H](O[C@H]9[C@H](O)[C@@H](O)[C@@H](O[C@H]1[C@H](O)[C@H]2O)O[C@@H]9CO)O[C@@H]8CO)O[C@@H]7CO)O[C@@H]6CO)O[C@@H]5CO)O[C@@H]4CO)O[C@@H]3CO [y-Cyclodextrin] | –
